In one assay the target is Mu opioid receptor (Homo sapiens, UniProt P35372). Put plainly: [35S]GTPγS binding assay, affinity at the μ receptor. Format: biochemical. To be noted: read-out: calc Ki μ; mu opioid receptor membranes.
In a further assay the target is kappa opioid receptor (Homo sapiens, UniProt P41145). Put plainly: [35S]GTPγS binding assay, affinity at the k receptor. Format: biochemical. The note with it: read-out: calc Ki k; kappa opioid receptor membranes.
Assay [1] has as its target delta opioid receptor (δ2) (Homo sapiens, UniProt P41143). As to the kind of experiment: [35S]GTPγS binding assay, affinity at the δ receptor. The assay is classed as biochemical. To be noted: read-out: calc Ki δ2; delta opioid receptor membranes.
In assay [2] the target is human opioid receptor-like receptor (ORL-1) (Homo sapiens, UniProt P41146). Put plainly: Functional [35S]GTPγS binding assay, nociceptin affinity at the ORL1 receptor. (In general: Binding of GTPγS marks nucleotide exchange on a G protein.)

For `CC(=O)N1CN(c2ccccc2)C2(CCN(C3CCc4ccccc4C3)CC2)C1=O` (stereo not drawn), the Ki (in general, the dissociation constant of the complex between target and ligand, obtained from inhibition or displacement) on Mu opioid receptor was 38 nM; at kappa opioid receptor it was 365 nM; in assay [1], 3490 nM; in assay [2], 17 nM.
Consider `O=C1NCN(c2ccccc2)C12CCN(Cc1ccco1)CC2`, for which the inhibitory constant (Ki) is 169 nM on Mu opioid receptor, 966 nM at kappa opioid receptor, above 10000 nM in assay [1] and 778 nM in assay [2].
On to `O=C1NCN(c2ccccc2)C12CCN(C1CCc3ccccc3C1)CC2` (stereo not drawn) [8-[1,2,3,4tetrahydronaphthyl]-1-phenyl-1,3,8-triazospiro[4.5]decan-4-one], for which the Ki on Mu opioid receptor is 20 nM; at kappa opioid receptor, 288 nM; in assay [1], 4500 nM; in assay [2], 23.3 nM.
